# High-throughput results as filed in PubChem.
# gsp ag: activates gsp, the McCune-Albright syndrome mutation | hit rate 0.13% among 340,000 | gsp mutant cells, cAMP HTRF, 30 min | Potency, µM (doses to about 76.9 µM), inactives show top-dose activation (cAMP increase), most hits filed as activators; active = well fitted activation curve with a large enough effect; inconclusive = small, poorly fitted or top-dose-only effect, or another doubt; inactive = no such curve, though single readings can be large or run the other way; cell line not stated here;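 also: phosphodiesterase inhibitor Ro 20-1724 added with compounds to block cAMP breakdown; potency is read from the fitted curve at half-maximal effect; nearly all actives have a fitted effect of over 60% in size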
#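 Cells stably selected in G418 were plated at 2000/well, grown 16-24 hr, then given compounds in DMSO with the PDE inhibitor […] (300 uM solution added) for 30 min at 37C; cAMP was read by HTRF.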
# RXFP1 antag: RXFP1 (human) relaxin receptor antagonism. AID 1259400. HEK293-RXFP1, relaxin-stimulated cAMP HTRF, 30 min; active compounds read low. activity change, negative = inhibition, % at 57.5 µM. hit rate 0.59% among 350,000. Q9HBX9;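 active = activity change of -60% or lower, but not beyond a set lower limit; inconclusive = change between -60% and -40%, or beyond the set limit; inactive = change above -40%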; also: % is scaled to controls: 0 for no effect and ±100 for the full control effect
# miR-21 reporter: miR-21 reporter, rising signal; Potency, µM (titrated, usually from 38.3 µM), without a hit: at the highest dose reporter change, positive = more light; AID 2288; 340,000 tested, under 10 active; HeLa miR-21 FLuc reporter, luciferase, 48 h; active = well fitted rising curve with a large enough effect; inconclusive = small, poorly fitted or top-dose-only effect; inactive = no such curve, though single readings can be large or run the other way;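 note: % of control where 0% means no effect; miR-21 action dims this reporter so a rising signal means less miR-21 action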
#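 HeLa cells endogenously expressing miR-21, stably carrying CMV-driven firefly luciferase with a downstream miR-21 binding site, 2000 cells/well. Titrations up to approximately 40 uM, 48 hours; luciferase luminescence read.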
# gsp antag: antagonizes gsp, the McCune-Albright syndrome mutation; gsp-mutant cells, cAMP HTRF, 30 min; Potency, µM (doses to about 76.9 µM), for the others: at the top dose activity change, negative = inhibition, actives largely listed as inhibitors; hit rate 0.4% among 340,000; calls by dose curve; cell line not stated here;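 also: intracellular cAMP measured with PDE inhibitor Ro 20-1724 present during compound exposure; potency is read from the fitted curve at half-maximal effect; % is scaled to controls: 0 for no effect and ±100 for the full control effect; nearly all actives have a fitted effect of over 65% in size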
#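 G418-selected cells were plated in DMEM/10% FBS for 16-24 h at 37C, then treated with compounds plus the PDE inhibitor […] (300 uM solution added) for 30 min at 37C. Intracellular cAMP was measured by HTRF after 30 min lysis at room temperature.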
# KinaseGlo FLuc: blocks Kinase-Glo luciferase, a counter-screen artifact | Q27757 | Kinase-Glo luciferase, ATP luminescence, 8 min | Potency, µM (doses to about 38.3 µM), for the others: at the top dose activity change, negative = inhibition, actives largely listed as inhibitors | hit rate 0.28% among 200,000 | AID 1379; also: potency is read from the fitted curve at half-maximal effect; % is scaled to controls: 0 for no effect and ±100 for the full control effect; nearly all actives have a fitted effect of over 60% in size
#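 Substrate mix (final 50 mM imidazole pH 7.2, 50 mM KCl, 7 mM MgCl2, 10 uM ATP, 0.01% Tween 20, 0.05% BSA) plus pin-tool compound, then Kinase-Glo detection mix; 8 min ambient, luminescence read.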
# RXFP1 ag: activates the human relaxin receptor RXFP1; Potency, µM (doses to about 57.5 µM), for inactives: at the highest dose activation, actives largely listed as activators; hit rate 0.3% among 370,000; Q9HBX9; HEK293T-RXFP1 cAMP TR-FRET, 30 min; response scale: percent of porcine relaxin response, buffer zero; also: potency is read from the fitted curve at half-maximal effect; % is scaled to controls: 0 for no effect and ±100 for the full control effect; nearly all actives have a fitted effect of over 60% in size
#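 cAMP rise read by TR-FRET after 30 min, 37C compound exposure (up to 58 uM) in RXFP1-transfected HEK293 cells with Ro 20174 present. EC50 from Hill-equation fits, with 29 nM porcine relaxin as 100% and buffer as basal.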
# Active calls of the source: *; ? = inconclusive; nt = no result given; ! = a repeat was not active; [ ] = remark or other dose. Most compounds without a hit are left out; they make up all but 1% or so of the library. Unless noted, calls follow the shape of the dose curve; as a rule, active = well fitted curve in the direction sought with a large enough effect; inconclusive = small, poorly fitted or top-dose-only effect, or another doubt; inactive = no such curve, though single readings can be large; an effect the other way counts as inactive or inconclusive.
no.	SMILES	gsp ag	RXFP1 antag	miR-21 reporter
1	Nc1ccccc1C(=O)/C=C/c1ccc2c(c1)OCO2	nt	nt	0%
2	COc1ccc(-n2ncc(C(=O)NCc3ccc4c(c3)OCO4)c2C2CCN(C(=O)OC(C)(C)C)CC2)cc1	nt	-33	29%
3	Cc1onc(-c2c(Cl)cccc2Cl)c1C(=O)Cl	nt	-3	nt
4	CC(=O)c1c(C)oc2ccc(NS(=O)(=O)c3ccc(F)cc3C)cc12	12%[15.4 µM]	-8	4%
5	Cc1cc(F)ccc1S(=O)(=O)Nc1ccc2oc3c(c2c1)CC(C)CC3 (stereo not drawn)	nt	?	17%
6	O=C(O)c1ccccc1NS(=O)(=O)c1cccc(C(F)(F)F)c1	6%	21	-4%
7	O=C(O)c1ccccc1NS(=O)(=O)c1cccc(-n2sc3ccccc3c2=O)c1	0%	-115*	13%
8	CCOC(=O)C1=C(O)/C(=C/c2cccc(OC)c2O)N=C1C	-52%	-63*	1%
9	Cc1ccc(C)c(N2CCN(C(=O)Nc3ccc4c(c3)N(C)C(=O)CS4)CC2)c1	16%	-15	23%
10	COc1ccccc1N1CCN(C(=O)c2cccc(S(=O)(=O)N3c4ccccc4CC3C)c2)CC1 (stereo not drawn)	11%	-3	nt
11	Cc1cccc2c1NC(=O)/C2=C\C(=O)c1cccs1	-2%	-92*	?
12	CCc1ccc2c(c1)/C(=C/C(=O)c1cccs1)C(=O)N2	-3%	-92*	?

no.	gsp antag	KinaseGlo FLuc	RXFP1 ag
1	4%	10µM*!	1%
2	nt	nt	-1%
3	nt	nt	nt
4	25µM*	nt	-3%
5	nt	nt	-4%
6	-8%	-2%	0%
7	?	nt	-1%
8	-21%	-5%	-1%
9	40µM*	nt	5%
10	32µM*	nt	nt
11	10%	-4%	1%
12	12%	-1%	1%

# With a hit mark in RXFP1 antag (from the list above):
entry | Compound | gsp ag | RXFP1 antag | miR-21 reporter | gsp antag | RXFP1 ag
7 | O=C(O)c1ccccc1NS(=O)(=O)c1cccc(-n2sc3ccccc3c2=O)c1 | 0% | -115* | 13% | ? | -1%
8 | CCOC(=O)C1=C(O)/C(=C/c2cccc(OC)c2O)N=C1C | -52% | -63* | 1% | -21% | -1%
11 | Cc1cccc2c1NC(=O)/C2=C\C(=O)c1cccs1 | -2% | -92* | ? | 10% | 1%
12 | CCc1ccc2c(c1)/C(=C/C(=O)c1cccs1)C(=O)N2 | -3% | -92* | ? | 12% | 1%

# Next section.
no.	SMILES	gsp ag	RXFP1 antag	miR-21 reporter
13	Cc1cc(Br)c2c(c1)/C(=C/C(=O)c1cccs1)C(=O)N2	34%[15.4 µM]	nt	4%
14	CCN(CC)S(=O)(=O)c1ccc(-c2nnc(SCC(=O)N3c4ccccc4CC3C)n2CC)cc1 (stereo not drawn)	0%	0	-3%
15	COc1ccc(Cl)cc1NC(=O)CSc1nc2ccccc2nc1N1CCCCC1	nt	nt	-5%
16	CC(C)(C)c1ccc(C(=O)CCC(=O)OCC(=O)NCCc2ccc(S(N)(=O)=O)cc2)cc1	1%	-39	nt
17	NS(=O)(=O)c1ccc(CCNC(=O)COC(=O)CCc2ccccc2)cc1	-14%	5	-2%
18	C=CCSc1nnc2c(n1)OC(c1c(C)[nH]n(-c3ccccc3)c1=O)Nc1ccccc1-2 (stereo not drawn)	9%	8	-34%
19	C=CCSc1nnc2c(n1)OC(c1cccnc1)Nc1ccccc1-2 (stereo not drawn)	0%	6	-39%
20	CC1CCN(C(=O)CSc2ccc(-c3cccc([N+](=O)[O-])c3)nn2)CC1	9%[15.4 µM]	-14	4%
21	CC1(C)CC(=O)C2=C(C1)c1c(ccc3ccccc13)NC2c1cc([N+](=O)[O-])cc([N+](=O)[O-])c1O (stereo not drawn)	-10%[15.4 µM]	-72*	21%
22	CC1(C)CC(=O)C2=C(C1)c1c(ccc3ccccc13)NC2c1ccc(C(=O)O)cc1 (stereo not drawn)	-1%	2	-7%
23	CCOC(=O)c1nnc2c(-c3ccc(Cl)cc3)c(C)nn2c1N	nt	nt	-2%
24	C/C(=N\N=C1/SC(CC(=O)O)C(=O)N1c1ccccc1)c1ccc(C)cc1 (stereo not drawn)	-26%	1	-10%

no.	gsp antag	KinaseGlo FLuc	RXFP1 ag
13	-27%	1%	4%
14	28µM*	1%	0%
15	nt	nt	3%
16	32µM*	nt	0%
17	2%	2%	-1%
18	25µM*	-4%	-1%
19	-5%	-3%	1%
20	28µM*	0%	0%
21	32µM*	0%	0%
22	-24%	nt	0%
23	nt	nt	1%
24	25µM*	nt	-3%

# Additional results:
no.	SMILES	gsp ag	RXFP1 antag	miR-21 reporter
25	COc1cn(CC(=O)Nc2c(C)cc(C)cc2C)c(CN2CCCCC2)cc1=O	nt	0	0%
26	O=C(N/C(=C\c1ccccc1)C(=O)N1CCOCC1)c1ccc(Br)o1	?	-70*	-1%
27	CSc1ccc(/C=N/NC(=O)C[n+]2ccccc2)cc1	20µM*	6	0%
28	COc1ccc(C(=O)N/N=C/c2ccc(SC)cc2)cc1	-53%	-7	-28%
29	CC(C)(C)c1ccc(/C=N/NC(=O)C[n+]2ccccc2)cc1	-1%	9	-1%
30	CSc1ccc(/C=N/NC(=O)c2ccc(O)cc2)cc1	-1%[15.4 µM]	-20	-56%
31	CC(CC1c2ccccc2CCc2ccccc21)CN(C)C (stereo not drawn)	nt	-27	nt
32	O=C(OCC#CCSc1nnc(-c2cccc3ccccc23)s1)c1cccs1	nt	nt	nt
33	Cc1nc([N+](=O)[O-])cn1-c1ccc([N+](=O)[O-])cc1	nt	2	nt
34	CCCCCn1c(=O)[nH]c2cc(C(=O)NCCc3ccc(OC)c(OC)c3)ccc2c1=O	-1%	-21	-1%
35	CCCCNC(=O)c1sc(=S)n2c1[nH]c(=O)c1ccc(C(=O)NCCc3ccc(OC)c(OC)c3)cc12	?	5	-2%
36	CCc1nn2cc(-c3ccccc3)nc2s1	-4%	-20	14%

no.	gsp antag	KinaseGlo FLuc	RXFP1 ag
25	nt	nt	3%
26	0%	nt	-1%
27	4%	nt	0%
28	-1%	3%	1%
29	3%	nt	0%
30	-22%	13µM*	1%
31	nt	nt	nt
32	nt	nt	0%
33	nt	nt	nt
34	18%	-4%	0%
35	35µM*	nt	1%
36	6%	10µM*	1%

# Later entries
no.	SMILES	gsp ag	RXFP1 antag	miR-21 reporter
37	Cc1nn2cc(-c3ccc(-c4ccccc4)cc3)nc2s1	-1%	-5	-32%
38	CN(C(=O)CSc1nc2ccc(NC(=O)c3ccccc3)cc2s1)c1ccccc1	nt	nt	?
39	Cc1noc2ncnc(N3CCN(c4cccc(Cl)c4)CC3)c12	10%	-4	28%
40	C=CCSC1=Nc2sccc2C2=NC(=O)CN12	20µM*	-2	-5%
41	O=C(NC1CCS(=O)(=O)C1)/C(=C\c1ccco1)NC(=O)c1ccccc1 (stereo not drawn)	?	-14	4%
42	O=C(NC1CCS(=O)(=O)C1)/C(=C/c1ccco1)NC(=O)c1ccccc1 (stereo not drawn)	?	-72*	3%
43	CN(C(=O)CSc1ncnc2ccccc12)C1CCS(=O)(=O)C1 (stereo not drawn)	13µM*	5	nt
44	O=C(CSc1nc2ccsc2c(=O)n1CC1CCC(C(=O)O)CC1)c1ccc(Cl)cc1 (stereo not drawn)	5%[15.4 µM]	-17	-9%
45	O=C(CSc1nc2ccsc2c(=O)n1CC1CCC(C(=O)O)CC1)c1ccc(F)cc1 (stereo not drawn)	?	-8	-7%

no.	gsp antag	KinaseGlo FLuc	RXFP1 ag
37	4%	7%	2%
38	nt	nt	0%
39	35µM*	2%	0%
40	15%	-4%	7%
41	6%	nt	-3%
42	0%	0%	-2%
43	8%	nt	8%
44	22µM*	-3%	3%
45	?	-3%	3%
